Test results reported in patent publication US9549906B2, “Compositions and methods for treatment of ocular inflammation and/or pain” (priority 2013, dated 2017).

Amino acid sequences for entries named in this document (tags omitted).
UniProt P34972, whole entry: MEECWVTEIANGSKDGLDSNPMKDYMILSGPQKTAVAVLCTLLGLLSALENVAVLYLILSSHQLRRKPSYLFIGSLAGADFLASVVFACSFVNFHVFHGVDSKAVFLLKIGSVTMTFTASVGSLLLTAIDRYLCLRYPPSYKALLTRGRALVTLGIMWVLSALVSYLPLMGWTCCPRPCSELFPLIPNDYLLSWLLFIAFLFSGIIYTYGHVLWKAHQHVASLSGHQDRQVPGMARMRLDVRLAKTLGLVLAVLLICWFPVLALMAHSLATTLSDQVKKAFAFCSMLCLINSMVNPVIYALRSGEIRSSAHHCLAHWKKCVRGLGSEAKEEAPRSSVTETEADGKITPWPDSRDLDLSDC

Tests used:
CB2 [1] = target: T1, CB2 (Homo sapiens, UniProt P34972); experiment: In-Cell western, PLCβ3 phosphorylation (Gαq) in HEK 293A cells transfected with hCB2; type: cell-based; set-up: expressed in transfected cells; settings: 0.001-10 μM titrated compound, 10 min, with or without fixed co-ligand as in label; read-out: EC50 (nM) ± SEM, PLCβ3 (Gαq)
CB2 [2] = target: T1, CB2; experiment: In-Cell western, ERK phosphorylation (Gαi/o) in HEK 293A cells transfected with hCB2; type: cell-based; set-up: expressed in transfected cells; settings: 0.001-10 μM titrated compound, 10 min, with or without fixed co-ligand as in label; read-out: EC50 (nM) ± SEM, ERK (Gαi/o)

## C=C(C)[C@@H]1CCC(C)=C[C@H]1c1c(O)cc(CCCCC)cc1O [CBD, cannabidiol]
CB2 [1]
  EC50: 977.9 ± 7.8 nM
CB2 [2]
  EC50: 1290 ± 23 nM
